# In PubChem BioAssay AID602429 (Sanford-Burnham Center for Chemical Genomics, 2012):
# By UniProt entry, the sequences of proteins in these tests, tags left out.
# UniProt P63165, whole entry, looked up: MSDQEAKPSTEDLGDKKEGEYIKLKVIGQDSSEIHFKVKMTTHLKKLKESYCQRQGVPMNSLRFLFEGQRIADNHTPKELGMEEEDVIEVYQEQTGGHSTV
# The entries are a selection whose mix differs from that of the whole data set. The source made the active and inactive calls. Rule as the data show it: active = inhibition above about 37%; inactive = the rest.
# Molecular target: Small ubiquitin-related modifier 1 (Homo sapiens) (UniProt P63165)
# Test: SUMO1 binding to interaction partners, disruption – biochemical, uHTS, primary screen (AID 602429)
# Conditions: SUMO1 binding to a labelled peptide, TR-FRET, 1 h; at 20 µM; stronger effect = higher value
row,Structure (SMILES),inhibition
1,O=C(O)C(=O)c1ccc(N(CCCl)CCCl)cc1,inactive: 0.992%
2,O=C(Nc1ccncc1[N+](=O)[O-])c1ccc([N+](=O)[O-])cc1[N+](=O)[O-],inactive: -39%
3,O=C(COc1ccccc1)OC1CN2CCC1CC2 (stereo not given),inactive: 0.93%
4,CCOC(=O)Nc1cccc([As](=O)(O)O)c1,inactive: -0.183%
5,Cc1cc(SC(NC=O)C(Cl)(Cl)Cl)ncn1 (stereo not given),inactive: 0.78%
6,O=P(Nc1ccccn1)(c1cccc2ccccc12)c1cccc2ccccc12,inactive: -6.98%
7,O=[N+]([O-])c1ccc(Nc2ccc(Oc3ccc([N+](=O)[O-])cc3[N+](=O)[O-])cc2)c([N+](=O)[O-])c1,inactive: -4.36%
8,O=C(O)C(O)c1ccc(N(CCCl)CCCl)cc1 (stereo not given),inactive: 4.44%
9,CCOC(=O)Nc1ccc([As](=O)(O)O)c(O)c1,inactive: -3.74%
10,CC1CCNP(=O)(N(CCCl)CCCl)O1 (stereo not given),inactive: -5.65%
11,COP(=O)(OC)N1CC1c1ccccc1 (stereo not given),inactive: 1.69%
12,Cc1cc(SC(NC(=O)c2ccccc2)C(Cl)(Cl)Cl)nc(C(C)C)n1 (stereo not given),inactive: -2.02%
13,CCCCOc1ccc(C(=O)NCC2(N3CCCCC3)CCCCC2)cc1OC,inactive: -3.15%
14,ClCCSc1nnc(-c2cccnc2)o1,inactive: 1.67%
15,CC(C)c1ccc(OP(=O)(Nc2ccccn2)Oc2ccccc2F)cc1 (stereo not given),inactive: 0.937%
16,COC(=O)C1(C)COP(=O)(N2CCCCCC2)OC1 (stereo not given),inactive: 4.16%
17,O=[N+]([O-])c1cc([N+](=O)[O-])c(-c2ccn[nH]2)s1,inactive: -4.94%
18,CCN(CC)C(=S)SC(NC=O)C(Cl)(Cl)Cl (stereo not given),inactive: -1.9%
19,O=C(OC1CN2CCC1CC2)c1cccc2[nH]cnc12 (stereo not given),inactive: 2.43%
20,CC(C)NC(=O)NP(=O)(Oc1ccccc1)Oc1ccccc1,inactive: -0.723%
21,COc1cc(C(=O)NCC2(N3CCOCC3)CCCCC2)ccc1OCC(C)C,inactive: -3.91%
22,O=[N+]([O-])c1ccc(-c2cc([N+](=O)[O-])c(O)c([N+](=O)[O-])c2)cc1,inactive: -16.8%

row,Structure (SMILES),inhibition
1,O=[As](O)(c1ccc(O)cc1)c1ccccc1O,inactive: 7.83%
2,C[As](=O)(O)c1cccc(C(=O)O)c1,inactive: 2.08%
3,Cc1ccc(OP(=O)(Nc2ccc([N+](=O)[O-])cn2)Oc2ccc(C)cc2)cc1,inactive: 1.17%
4,[N-]=[N+]=NC1CCCCC1NC(=O)c1cc([N+](=O)[O-])cc([N+](=O)[O-])c1 (stereo not given),inactive: -49.2%
5,Cc1ccc2nc3c(c(C)c2c1)CC(C(Cl)Cl)S3 (stereo not given),inactive: 2.31%
6,O=[N+]([O-])c1cc(Oc2ccc([N+](=O)[O-])cc2C(F)(F)F)cc([N+](=O)[O-])c1,inactive: -50.5%
7,COc1ccc(N/C(=N/P(=O)(N2CCOCC2)N2CCOCC2)N2CCOCC2)cc1,inactive: -1.24%
8,Cc1c2c(nc3ccccc13)SC(C(Cl)Cl)C2 (stereo not given),inactive: 0.359%
9,Cc1cc(=O)[nH]c(N[N+](=O)[O-])n1,inactive: 0.283%
10,O=C(OC1CN2CCC1CC2)C12CC3CC(CC(C3)C1)C2 (stereo not given),inactive: 1.41%
11,O=P1(N(CCCl)CCCl)Nc2ccccc2N1,inactive: -2.24%
12,O=P1(N(CCCl)CCCl)OCCCN1CCCl (stereo not given),inactive: 2.92%
13,COc1cc(I)ccc1[As](=O)(O)O,inactive: 5.94%
14,COc1ccc2nc(NP(=O)(c3ccccc3)c3ccccc3)sc2c1,inactive: -3.1%
15,O=C(NC(Sc1ccncn1)C(Cl)(Cl)Cl)c1ccccc1 (stereo not given),inactive: -1.53%
16,Oc1ccccc1CNc1ccccn1,inactive: -1.29%
17,CC(C)CC(=O)NC(Sc1ccc(Cl)cc1)C(Cl)(Cl)Cl (stereo not given),inactive: 4.79%
18,Nc1cc(N)c2nonc2c1[N+](=O)[O-],inactive: -12.3%
19,O=[N+]([O-])C1C(O)C(O)C([N+](=O)[O-])C(O)C1O (stereo not given),inactive: 1.84%
20,Cc1ccc(N/C(=N/P(=O)(N2CCOCC2)N2CCOCC2)N2CCOCC2)cc1,inactive: 26%
21,CN(C(=O)Cc1ccc(Cl)c(Cl)c1)[C@H]1CCCC[C@H]1N1CCCC1,inactive: 2.82%
22,NC(=O)c1cc([N+](=O)[O-])cc([N+](=O)[O-])c1N,inactive: -23.3%

row,Structure (SMILES),inhibition
1,Clc1ccc(Cl)c(NC2=NCC(CBr)S2)c1 (stereo not given),inactive: -4.82%
2,CN1CCCC(OC(=O)C(c2ccccc2)c2ccccc2)C1 (stereo not given),inactive: -3.15%
3,Cc1ccc(OP(=O)(Nc2nccs2)Oc2ccc(C)cc2)cc1,inactive: 2.04%
4,COc1ccccc1OP(=O)(Nc1ccc(C)cn1)Oc1ccccc1OC,inactive: 7.79%
5,Nc1cccc2ccc([As](=O)(O)O)cc12,inactive: -6.18%
6,CCN(N=Nc1nonc1N)c1nonc1N,inactive: -0.955%
7,CN(C)P(=O)(N(C)C)n1c(Nc2ccccc2)nnc1-c1ccccc1,inactive: -0.236%
8,O=P(Nc1nc2ccc(Cl)cc2s1)(c1ccccc1)c1ccccc1,inactive: 4.25%
9,CCCC1OP(N)(=O)OCC1CC (stereo not given),inactive: -4.06%
10,O=C(O)c1ccccc1[As](=O)(O)O,inactive: 0.0175%
11,CC(=O)Nc1ccc([As](=O)(O)O)cc1,inactive: -3.53%
12,CN(C(=O)Cc1ccc(Cl)c(Cl)c1)[C@H]1CCCC[C@@H]1N1CCCC1,inactive: 1.26%
13,Cc1ccc(NP(=O)(Oc2ccccc2F)Oc2ccccc2F)nc1,inactive: 0.0733%
14,CCOP(=O)(Nc1ccccc1)OCC,inactive: 2.54%
15,Cc1cc(SC(NC(=O)c2ccc(F)cc2)C(Cl)(Cl)Cl)ncn1 (stereo not given),inactive: -5.54%
16,O=[N+]([O-])c1ncn(CCn2ncnc2[N+](=O)[O-])n1,inactive: -16.9%
17,CC(C)(C)C(=O)NC(Sc1ccncn1)C(Cl)(Cl)Cl (stereo not given),inactive: -6.69%
18,O=C(O)CNc1ccc([As](=O)(O)O)cc1,inactive: 3.84%
19,O=[N+]([O-])c1cccc(NC2=NCC(CBr)S2)c1 (stereo not given),inactive: -21.7%
20,COC(=O)C1(C)COP(=O)(Nc2ccccc2)OC1 (stereo not given),inactive: 1.08%
21,O=P1(N(CCCl)CCCl)OCCCS1 (stereo not given),inactive: 0.409%
